Experiment: Radiochemical purity / percent stability of aged radiopharmaceutical solutions by radio-analytical HPLC
Conditions: 8 vol. % EtOH:phosphate

For `Cc1cn([C@H]2C[C@H]([18F])[C@@H](CO)O2)c(=O)[nH]c1=O` [[F-18]FLT], the “% stability 3.25 hr” value ([F-18]FLT 118.7 mCi/mL, maleic acid + Air headspace) was 99.8% and the “% stability 3.5 hr” value ([F-18]FLT 197.1 mCi/mL, maleic acid (0.1 mg/mL) + O2) was 99.2%.
